Experimental data published in US8067243B2 (priority 2008, dated 2011).

How the values were obtained:
[1] = in vivo, cited from earlier work
[2] = human, in vivo
[3] = in vivo; cited from earlier work

CN1CC[C@]23c4c5ccc(O)c4O[C@H]2C(=O)CC[C@H]3[C@H]1C5 [Hydromorphone]
detection of hydromorphone by LC/MS/MS after an oral dose of hydrocodone ([1]; po): up to 4 days
detection of free drug in urine by LC/MS/MS after administration [1]: up to 4 days
Result (urine concentration) [2]: 214 ng/mL
dose eliminated as conjugated hydromorphone [3]: 36%
dose eliminated as free hydromorphone [3]: About 6%
